From patent publication EP4834897A1, “COMPOUNDS WITH TWO AZAHETEROCYCLES SUBSTITUTED ISOINDOLINONE SKELETON AND USES THEREOF” (dated 2026)

Sequences of proteins named here, by UniProt entry; tags and fusion partners are left off.
UniProt Q96SW2, whole entry: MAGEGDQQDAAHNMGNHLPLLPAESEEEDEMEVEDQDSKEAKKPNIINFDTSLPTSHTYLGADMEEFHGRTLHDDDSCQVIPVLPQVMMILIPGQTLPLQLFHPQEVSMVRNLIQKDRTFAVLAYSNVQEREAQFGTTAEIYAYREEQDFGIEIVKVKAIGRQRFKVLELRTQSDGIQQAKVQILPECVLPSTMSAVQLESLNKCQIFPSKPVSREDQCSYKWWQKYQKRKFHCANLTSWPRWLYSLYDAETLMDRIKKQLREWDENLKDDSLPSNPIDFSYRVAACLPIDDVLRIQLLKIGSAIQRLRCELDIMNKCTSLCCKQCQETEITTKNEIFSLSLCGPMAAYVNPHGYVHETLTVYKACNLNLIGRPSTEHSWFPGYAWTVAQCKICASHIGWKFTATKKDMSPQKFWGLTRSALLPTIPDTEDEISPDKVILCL
UniProt P48729, whole entry: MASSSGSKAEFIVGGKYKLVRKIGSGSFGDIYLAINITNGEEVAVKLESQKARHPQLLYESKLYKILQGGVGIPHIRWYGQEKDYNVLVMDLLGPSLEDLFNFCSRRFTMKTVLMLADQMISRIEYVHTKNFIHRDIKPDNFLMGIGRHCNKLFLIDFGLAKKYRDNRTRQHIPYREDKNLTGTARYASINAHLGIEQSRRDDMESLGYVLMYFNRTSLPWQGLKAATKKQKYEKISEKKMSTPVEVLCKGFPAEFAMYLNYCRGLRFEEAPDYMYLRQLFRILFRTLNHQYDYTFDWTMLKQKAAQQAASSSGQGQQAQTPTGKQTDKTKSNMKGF
UniProt P15170, whole entry: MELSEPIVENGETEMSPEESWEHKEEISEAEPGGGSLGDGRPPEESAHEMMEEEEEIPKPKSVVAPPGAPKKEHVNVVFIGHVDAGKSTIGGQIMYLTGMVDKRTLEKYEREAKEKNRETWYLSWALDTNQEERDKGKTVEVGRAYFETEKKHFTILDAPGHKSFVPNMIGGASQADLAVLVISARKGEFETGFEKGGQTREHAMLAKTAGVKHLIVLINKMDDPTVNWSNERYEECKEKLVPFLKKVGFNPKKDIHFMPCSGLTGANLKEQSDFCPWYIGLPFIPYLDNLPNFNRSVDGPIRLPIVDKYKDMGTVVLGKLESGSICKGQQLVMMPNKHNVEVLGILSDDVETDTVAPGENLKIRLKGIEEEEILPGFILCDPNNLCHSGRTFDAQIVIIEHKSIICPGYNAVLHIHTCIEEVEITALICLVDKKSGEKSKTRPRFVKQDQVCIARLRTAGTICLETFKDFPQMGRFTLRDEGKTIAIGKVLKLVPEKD
UniProt Q13422, whole entry: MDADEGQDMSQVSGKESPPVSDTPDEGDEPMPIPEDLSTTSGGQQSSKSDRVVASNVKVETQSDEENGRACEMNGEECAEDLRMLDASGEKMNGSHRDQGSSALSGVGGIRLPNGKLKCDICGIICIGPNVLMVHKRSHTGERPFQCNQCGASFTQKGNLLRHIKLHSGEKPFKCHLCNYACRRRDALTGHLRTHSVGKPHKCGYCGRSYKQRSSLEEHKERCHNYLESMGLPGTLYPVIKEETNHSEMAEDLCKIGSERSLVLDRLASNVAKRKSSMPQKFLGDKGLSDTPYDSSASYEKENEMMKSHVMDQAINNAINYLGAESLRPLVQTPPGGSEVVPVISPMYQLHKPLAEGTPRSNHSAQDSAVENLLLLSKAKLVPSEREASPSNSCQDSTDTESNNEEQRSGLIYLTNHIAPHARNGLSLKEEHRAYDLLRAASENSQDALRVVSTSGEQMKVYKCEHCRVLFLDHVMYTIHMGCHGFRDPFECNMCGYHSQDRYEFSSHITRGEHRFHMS
UniProt Q9UKS7, whole entry: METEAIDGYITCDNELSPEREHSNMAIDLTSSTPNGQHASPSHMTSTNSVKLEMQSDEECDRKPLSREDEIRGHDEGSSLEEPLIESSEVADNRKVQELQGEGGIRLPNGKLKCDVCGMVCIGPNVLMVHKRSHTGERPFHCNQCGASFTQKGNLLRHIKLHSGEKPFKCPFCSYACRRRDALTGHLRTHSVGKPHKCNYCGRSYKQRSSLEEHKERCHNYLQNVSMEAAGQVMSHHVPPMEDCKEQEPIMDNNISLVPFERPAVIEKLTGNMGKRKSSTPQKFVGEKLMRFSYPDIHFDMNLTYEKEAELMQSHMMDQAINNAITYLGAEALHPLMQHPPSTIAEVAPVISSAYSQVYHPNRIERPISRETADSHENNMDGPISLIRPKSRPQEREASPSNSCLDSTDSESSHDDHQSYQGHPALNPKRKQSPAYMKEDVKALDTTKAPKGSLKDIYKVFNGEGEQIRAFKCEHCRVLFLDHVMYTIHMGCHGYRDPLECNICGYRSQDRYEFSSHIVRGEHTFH
UniProt Q9UKT9, whole entry: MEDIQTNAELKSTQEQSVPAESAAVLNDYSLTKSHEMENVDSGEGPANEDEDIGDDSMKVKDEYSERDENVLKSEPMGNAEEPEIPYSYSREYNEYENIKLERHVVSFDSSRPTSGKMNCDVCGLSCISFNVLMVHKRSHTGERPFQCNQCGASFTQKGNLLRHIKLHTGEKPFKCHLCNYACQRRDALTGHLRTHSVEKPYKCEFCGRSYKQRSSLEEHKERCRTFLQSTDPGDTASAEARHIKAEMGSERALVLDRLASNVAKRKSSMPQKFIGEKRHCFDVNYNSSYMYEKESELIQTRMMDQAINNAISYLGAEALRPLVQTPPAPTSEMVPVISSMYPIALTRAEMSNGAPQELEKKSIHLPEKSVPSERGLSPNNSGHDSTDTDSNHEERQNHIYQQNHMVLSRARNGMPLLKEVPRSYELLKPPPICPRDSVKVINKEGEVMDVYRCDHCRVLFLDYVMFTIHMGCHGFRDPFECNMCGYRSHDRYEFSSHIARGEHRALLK
UniProt P30291, whole entry: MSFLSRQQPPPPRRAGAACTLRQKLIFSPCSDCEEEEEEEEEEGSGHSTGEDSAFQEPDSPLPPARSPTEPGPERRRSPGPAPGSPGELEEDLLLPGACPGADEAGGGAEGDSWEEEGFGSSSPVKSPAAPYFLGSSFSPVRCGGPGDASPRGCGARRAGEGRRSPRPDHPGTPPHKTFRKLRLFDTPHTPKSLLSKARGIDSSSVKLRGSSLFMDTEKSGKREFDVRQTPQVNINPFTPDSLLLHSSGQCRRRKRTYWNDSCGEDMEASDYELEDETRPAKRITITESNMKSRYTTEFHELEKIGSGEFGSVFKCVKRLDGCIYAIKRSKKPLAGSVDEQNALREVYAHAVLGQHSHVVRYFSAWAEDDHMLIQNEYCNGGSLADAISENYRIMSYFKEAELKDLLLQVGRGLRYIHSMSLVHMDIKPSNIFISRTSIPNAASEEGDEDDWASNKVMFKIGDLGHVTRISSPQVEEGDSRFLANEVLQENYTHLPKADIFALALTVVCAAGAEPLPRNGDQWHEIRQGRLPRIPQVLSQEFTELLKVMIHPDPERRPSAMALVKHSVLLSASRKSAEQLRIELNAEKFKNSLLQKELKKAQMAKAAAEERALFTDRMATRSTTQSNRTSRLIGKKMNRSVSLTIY
UniProt Q16531, whole entry partner: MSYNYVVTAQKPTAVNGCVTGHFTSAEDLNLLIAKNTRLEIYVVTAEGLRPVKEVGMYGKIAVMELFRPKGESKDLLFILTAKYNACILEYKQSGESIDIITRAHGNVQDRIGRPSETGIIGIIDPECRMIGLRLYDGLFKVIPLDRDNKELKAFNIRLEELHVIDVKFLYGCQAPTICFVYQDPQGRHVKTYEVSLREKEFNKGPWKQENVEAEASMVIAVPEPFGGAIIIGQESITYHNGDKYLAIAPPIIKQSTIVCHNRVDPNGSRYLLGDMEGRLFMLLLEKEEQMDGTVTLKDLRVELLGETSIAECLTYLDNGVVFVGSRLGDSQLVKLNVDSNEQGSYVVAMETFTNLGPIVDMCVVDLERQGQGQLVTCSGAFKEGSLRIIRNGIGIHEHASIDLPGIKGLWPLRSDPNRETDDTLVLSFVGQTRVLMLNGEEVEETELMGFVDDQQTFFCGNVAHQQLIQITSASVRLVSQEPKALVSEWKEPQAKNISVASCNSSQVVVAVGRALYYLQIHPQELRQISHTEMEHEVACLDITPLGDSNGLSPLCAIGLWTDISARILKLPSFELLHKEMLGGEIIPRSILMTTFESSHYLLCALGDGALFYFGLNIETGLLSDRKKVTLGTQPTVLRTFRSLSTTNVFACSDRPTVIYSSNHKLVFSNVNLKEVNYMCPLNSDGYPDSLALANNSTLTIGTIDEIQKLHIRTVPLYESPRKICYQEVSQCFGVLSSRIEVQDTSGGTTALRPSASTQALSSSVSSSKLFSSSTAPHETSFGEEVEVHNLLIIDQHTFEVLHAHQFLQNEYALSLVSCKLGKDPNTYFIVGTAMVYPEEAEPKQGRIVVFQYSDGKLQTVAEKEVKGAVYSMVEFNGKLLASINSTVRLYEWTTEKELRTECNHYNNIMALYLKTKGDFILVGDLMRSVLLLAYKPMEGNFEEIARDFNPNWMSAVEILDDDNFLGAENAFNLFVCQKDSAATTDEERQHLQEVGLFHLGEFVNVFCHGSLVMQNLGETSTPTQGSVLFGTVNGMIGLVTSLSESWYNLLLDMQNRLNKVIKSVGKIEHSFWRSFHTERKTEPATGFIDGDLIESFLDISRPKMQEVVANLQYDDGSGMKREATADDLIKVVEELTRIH

Columns and labels:
[1] = system: Human colon cancer cell (SW620); assay: Tumor cell proliferation inhibition (cell viability assay); settings: SW620 cells, 96 hours
[2] = system: Human multiple myeloma cell (MM.1S); assay: as above; settings: MM.1S cells, 96 hours
[3] = system: Human myeloid monocytic leukemia cell (MV-4-11); assay: as above; settings: MV-4-11 cells, 96 hours
[4] = target: CRBN (Homo sapiens, UniProt Q96SW2); assay: CRBN binding affinity by HTRF (CEREBLON BINDING kit); settings: CRBN binding, HTRF; for Inhibition Rate at 0.5 µM (%): compound at 0.5 µM; for Inhibition Rate at 2 µM (%): compound at 2 µM
[5] = target: CK1α (Homo sapiens, UniProt P48729+Q96SW2); assay: Western blot assay of substrate protein degradation in hPBMCs; settings: 24 hours treatment, compounds at 50 nM and 500 nM (concentration behind the class not stated)
[6] = target: GSPT1 (Homo sapiens, UniProt P15170+Q96SW2); assay: as above; settings: 24 hours treatment, compounds at 50 nM and 500 nM (concentration behind the class not stated)
[7] = target: IKZF1 (Homo sapiens, UniProt Q13422+Q96SW2); assay: as above; settings: 24 hours treatment, compounds at 50 nM and 500 nM (concentration behind the class not stated)
[8] = target: IKZF2 (Homo sapiens, UniProt Q96SW2+Q9UKS7); assay: as above; settings: 24 hours treatment, compounds at 50 nM and 500 nM (concentration behind the class not stated)
[9] = target: IKZF3 (Homo sapiens, UniProt Q96SW2+Q9UKT9); assay: as above; settings: 24 hours treatment, compounds at 50 nM and 500 nM (concentration behind the class not stated)
[10] = target: WEE1 (Homo sapiens, UniProt P30291+Q96SW2); assay: as above; settings: 24 hours treatment, compounds at 50 nM and 500 nM (concentration behind the class not stated)
[11] = system: Human acute T lymphocytic leukemia cell (Molt4); assay: Tumor cell proliferation inhibition (cell viability assay); settings: Molt4 cells, 96 hours

SMILES	Inhibition Rate at 0.5 µM (%) [4]	Inhibition Rate at 2 µM (%) [4]	Inhibition Rate at 10 nM (%) [1]	Inhibition Rate at 500 nM (%) [1]	Inhibition Rate at 10 nM (%) [2]	Inhibition Rate at 500 nM (%) [2]	Inhibition Rate at 10 nM (%) [3]	Inhibition Rate at 500 nM (%) [3]	substrate protein remaining % (CK1a) [5]	substrate protein remaining % (GSPT1) [6]	substrate protein remaining % (IKZF 1) [7]	substrate protein remaining % (IKZF2) [8]	substrate protein remaining % (IKZF3) [9]	substrate protein remaining % (WEE1) [10]	Inhibition Rate at 10 nM (%) [11]	Inhibition Rate at 500 nM (%) [11]
O=C1CCC(N2Cc3c(ccc(CN4CCC(N5CC=C(c6cccc(Cl)c6Cl)CC5)C(F)(F)C4)c3F)C2=O)C(=O)N1 (centres unmarked)	a4 (40% < a4 ≤ 53%)	a5 (53% < a5 ≤ 60%)	1d7 (50% ≤ 1d7 < 60%)	1d9 (70% ≤ 1d9 < 80%)	1b10 (80% ≤ 1b10 ≤ 100%)	1b10 (80% ≤ 1b10 ≤ 100%)	1a10 (80% ≤ 1a10 < 100%)	1a10 (80% ≤ 1a10 < 100%)	A (0% ≤ substrate protein remaining % ≤ 80%)	A (0% ≤ substrate protein remaining % ≤ 80%)	A (0% ≤ substrate protein remaining % ≤ 80%)	A (0% ≤ substrate protein remaining % ≤ 80%)	A (0% ≤ substrate protein remaining % ≤ 80%)	A (0% ≤ substrate protein remaining % ≤ 80%)	1c11 (80% ≤ 1c11 ≤ 100%)	1c11 (80% ≤ 1c11 ≤ 100%)
CC1(C)CCC(C(=O)N2CCN(C3CCN(Cc4cc5c(cc4F)C(=O)N(C4CCC(=O)NC4=O)C5)CC3(F)F)CC2)=C(c2ccc(Cl)cc2)C1 (centres unmarked)	a6 (60% < a6 ≤ 70%)	a8 (80% < a8 ≤100%)	1d3 (10% ≤ 1d3 < 20%)	1d7 (50% ≤ 1d7 < 60%)	1b4 (20% ≤ 1b4 < 32%)	1b9 (70% ≤ 1b9 < 80%)	1a9 (70% ≤ 1a9 < 80%)	1a10 (80% ≤ 1a10 < 100%)	A (0% ≤ substrate protein remaining % ≤ 80%)	A (0% ≤ substrate protein remaining % ≤ 80%)	B (80%< substrate protein remaining %≤ 100%)	A (0% ≤ substrate protein remaining % ≤ 80%)	B (80%< substrate protein remaining %≤ 100%)	A (0% ≤ substrate protein remaining % ≤ 80%)	1c5 (20% ≤ 1c5 < 30%)	1c9 (60% ≤ 1c9 < 70%)

Further lines, with some results ahead:

Inhibition Rate at 0.5 µM (%) [4]	Inhibition Rate at 2 µM (%) [4]	SMILES	Inhibition Rate at 10 nM (%) [1]	Inhibition Rate at 500 nM (%) [1]	Inhibition Rate at 10 nM (%) [2]	Inhibition Rate at 500 nM (%) [2]	Inhibition Rate at 10 nM (%) [3]	Inhibition Rate at 500 nM (%) [3]	substrate protein remaining % (CK1a) [5]	substrate protein remaining % (GSPT1) [6]	substrate protein remaining % (IKZF 1) [7]	substrate protein remaining % (IKZF2) [8]	substrate protein remaining % (IKZF3) [9]	substrate protein remaining % (WEE1) [10]	Inhibition Rate at 10 nM (%) [11]	Inhibition Rate at 500 nM (%) [11]
a4 (40% < a4 ≤ 53%)	a6 (60% < a6 ≤ 70%)	O=C1CCC(N2Cc3cc(CCCN4CCC(N5CCN(c6cccc(Cl)c6Cl)CC5)C(F)(F)C4)ccc3C2=O)C(=O)N1 (centres unmarked)	1d3 (10% ≤ 1d3 < 20%)	1d6 (40% ≤ 1d6 < 50%)	1b4 (20% ≤ 1b4 < 32%)	1b8 (60% ≤ 1b8 < 70%)	1a4 (20% ≤ 1a4 < 30%)	1a8 (60% ≤ 1a8 < 70%)	A (0% ≤ substrate protein remaining % ≤ 80%)	A (0% ≤ substrate protein remaining % ≤ 80%)	A (0% ≤ substrate protein remaining % ≤ 80%)	B (80%< substrate protein remaining %≤ 100%)	B (80%< substrate protein remaining %≤ 100%)	A (0% ≤ substrate protein remaining % ≤ 80%)		
a4 (40% < a4 ≤ 53%)	a7 (70% < a7 ≤80%)	O=C1CCC(N2Cc3c(CN4CCC(N5CC=C(c6cccc(Cl)c6Cl)CC5)C(F)(F)C4)cccc3C2=S)C(=O)N1 (centres unmarked)	1d3 (10% ≤ 1d3 < 20%)	1d6 (40% ≤ 1d6 < 50%)			1a4 (20% ≤ 1a4 < 30%)	1a10 (80% ≤ 1a10 < 100%)	A (0% ≤ substrate protein remaining % ≤ 80%)	A (0% ≤ substrate protein remaining % ≤ 80%)	B (80%< substrate protein remaining %≤ 100%)	B (80%< substrate protein remaining %≤ 100%)	A (0% ≤ substrate protein remaining % ≤ 80%)	A (0% ≤ substrate protein remaining % ≤ 80%)	1c3 (5% ≤ 1c3 < 10%)	1c8 (50% ≤ 1c8 < 60%)
a3 (30% < a3 ≤ 40%)	a6 (60% < a6 ≤ 70%)	O=C1CCC(N2Cc3cc(C(=O)N4CCC(N5CC=C(c6cccc(Cl)c6Cl)CC5)C(F)(F)C4)c(F)cc3C2=O)C(=O)N1 (centres unmarked)	1d2 (5% ≤ 1d2 < 10%)	1d6 (40% ≤ 1d6 < 50%)	1b5 (32% ≤ 1b5 < 42%)	1b10 (80% ≤ 1b10 ≤ 100%)	1a5 (30% ≤ 1a5 ≤ 40%)	1a10 (80% ≤ 1a10 < 100%)	A (0% ≤ substrate protein remaining % ≤ 80%)	A (0% ≤ substrate protein remaining % ≤ 80%)	A (0% ≤ substrate protein remaining % ≤ 80%)	A (0% ≤ substrate protein remaining % ≤ 80%)	A (0% ≤ substrate protein remaining % ≤ 80%)	A (0% ≤ substrate protein remaining % ≤ 80%)	1c5 (20% ≤ 1c5 < 30%)	1c11 (80% ≤ 1c11 ≤ 100%)
a5 (53% < a5 ≤ 60%)	a7 (70% < a7 ≤80%)	O=C1CCC(N2Cc3cc(CCCN4CCC(N5CC=C(c6cccc(Cl)c6Cl)CC5)C(F)(F)C4)ccc3C2=O)C(=O)N1 (centres unmarked)	1d5 (30% ≤ 1d5 < 40%)	1d6 (40% ≤ 1d6 < 50%)	1b8 (60% ≤ 1b8 < 70%)	1b10 (80% ≤ 1b10 ≤ 100%)	1a8 (60% ≤ 1a8 < 70%)	1a10 (80% ≤ 1a10 < 100%)	B (80%< substrate protein remaining %≤ 100%)	A (0% ≤ substrate protein remaining % ≤ 80%)	B (80%< substrate protein remaining %≤ 100%)	B (80%< substrate protein remaining %≤ 100%)	B (80%< substrate protein remaining %≤ 100%)	B (80%< substrate protein remaining %≤ 100%)	1c8 (50% ≤ 1c8 < 60%)	1c11 (80% ≤ 1c11 ≤ 100%)
